The text below walks through data of US9988392B2, “7-beta-alkyl analogs of orvinols” (dated 2018).

Chains of the proteins cited; added tags and fusions are not shown.
UniProt P35372, whole entry: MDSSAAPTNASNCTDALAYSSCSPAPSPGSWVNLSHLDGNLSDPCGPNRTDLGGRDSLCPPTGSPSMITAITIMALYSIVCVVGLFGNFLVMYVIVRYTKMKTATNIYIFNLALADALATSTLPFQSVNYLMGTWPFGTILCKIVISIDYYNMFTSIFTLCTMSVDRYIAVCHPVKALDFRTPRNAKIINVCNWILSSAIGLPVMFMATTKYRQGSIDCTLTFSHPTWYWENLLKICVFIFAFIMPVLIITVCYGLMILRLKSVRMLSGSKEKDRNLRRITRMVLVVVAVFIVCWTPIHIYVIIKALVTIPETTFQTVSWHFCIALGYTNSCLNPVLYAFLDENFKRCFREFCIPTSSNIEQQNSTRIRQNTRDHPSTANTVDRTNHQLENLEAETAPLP
UniProt P41145, whole entry: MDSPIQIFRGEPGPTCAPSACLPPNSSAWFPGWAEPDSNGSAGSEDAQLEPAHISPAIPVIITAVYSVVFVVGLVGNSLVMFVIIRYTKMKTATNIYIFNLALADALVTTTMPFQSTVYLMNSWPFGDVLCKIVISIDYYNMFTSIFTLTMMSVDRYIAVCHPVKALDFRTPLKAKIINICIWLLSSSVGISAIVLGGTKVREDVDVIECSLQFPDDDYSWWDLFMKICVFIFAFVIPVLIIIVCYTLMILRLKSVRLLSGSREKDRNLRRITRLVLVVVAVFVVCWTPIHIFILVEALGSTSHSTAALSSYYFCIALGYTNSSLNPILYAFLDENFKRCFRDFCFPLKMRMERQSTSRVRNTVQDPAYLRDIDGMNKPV

pEC50: −log10 of the molar value.

One experiment addresses T1, μ-opioid receptor (Homo sapiens (Human), UniProt P35372). Briefly: μ-opioid receptor [35S]GTPγS functional assay, HEK-293 cells. Particulars: maximal effect relative to DAMGO; HEK-293 cells. On the technique in general: GTPγS is a poorly hydrolysed GTP analogue; its binding reports G protein activation.
For the molecule `COc1ccc2c3c1OC1[C@@]4(OC)CC[C@@]5(C[C@]4(C)COCc4ccoc4)[C@@H](C2)N(CC2CC2)CC[C@]315` (stereo partly drawn), the “μ Emax (%)” value is 20.7 ± 0.33%.

For `COC12CC[C@@]3(C[C@]1(C)COCc1ccccc1)[C@H]1Cc4ccc(O)c5c4[C@@]3(CCN1CC1CC1)[C@H]2O5`, the “μ Emax (%)” value came out at 31.3 ± 5.24%.

Turning to `COc1ccc2c3c1O[C@H]1C4(OC)CC[C@@]5(C[C@]4(C)COCc4ccccc4)[C@@H](C2)N(CC2CC2)CC[C@]315`, the “μ Emax (%)” value worked out at 43.8 ± 4.40%.

On to `COc1ccc2c3c1O[C@H]1[C@@]4(OC)CC[C@@]5(C[C@]4(C)COCc4cc6ccccc6s4)[C@@H](C2)N(CC2CC2)CC[C@]315`, for which the “μ Emax (%)” value came out at 10.0 ± 0.58%.

`CO[C@]12CC[C@@]3(C[C@]1(C)COCc1cc4ccccc4s1)[C@H]1Cc4ccc(O)c5c4[C@@]3(CCN1CC1CC1)C2O5` (stereo partly drawn): the “μ Emax (%)” value is reported as 26.0 ± 3.51%.

Still in this experiment, the particulars now being: read-out: μ EC50; μ GTP EC50; membranes from HEK-293 cells.
Regarding `COc1ccc2c3c1OC1[C@@]4(OC)CC[C@@]5(C[C@]4(C)COCc4ccoc4)[C@@H](C2)N(CC2CC2)CC[C@]315` (stereo partly drawn), the pEC50 was 7.82.

With `COc1ccc2c3c1O[C@H]1C4(OC)CC[C@@]5(C[C@]4(C)COCc4ccccc4)[C@@H](C2)N(CC2CC2)CC[C@]315`, the pEC50 was 7.24.

Turning to `COc1ccc2c3c1O[C@H]1[C@@]4(OC)CC[C@@]5(C[C@]4(C)COCc4cc6ccccc6s4)[C@@H](C2)N(CC2CC2)CC[C@]315`, the pEC50 is 7.84.

With `CO[C@]12CC[C@@]3(C[C@]1(C)COCc1cc4ccccc4s1)[C@H]1Cc4ccc(O)c5c4[C@@]3(CCN1CC1CC1)C2O5` (stereo partly drawn), the pEC50 was 4.87.

The target in the next experiment is κ-opioid receptor (Homo sapiens (Human), UniProt P41145). Kind of experiment: κ-opioid receptor [35S]GTPγS functional assay, U-2 OS cells. Particulars: maximal effect relative to U69,593; U-2 OS cells.
In the case of `COC12CC[C@@]3(C[C@]1(C)COCc1ccccc1)[C@H]1Cc4ccc(O)c5c4[C@@]3(CCN1CC1CC1)[C@H]2O5`, the “κ Emax (%)” value was 103.0 ± 5.69%.

As to `COc1ccc2c3c1O[C@H]1C4(OC)CC[C@@]5(C[C@]4(C)COCc4ccccc4)[C@@H](C2)N(CC2CC2)CC[C@]315`, the “κ Emax (%)” value amounted to 107.0 ± 0.58%.

Consider `CO[C@]12CC[C@@]3(C[C@]1(C)COCc1cc4ccccc4s1)[C@H]1Cc4ccc(O)c5c4[C@@]3(CCN1CC1CC1)C2O5` (stereo partly drawn), for which the “κ Emax (%)” value was 73.3 ± 3.67%.

Still in this experiment, the particulars now being: read-out: κ EC50; κ GTP EC50; membranes from U-2 OS cells.
For `COC12CC[C@@]3(C[C@]1(C)COCc1ccccc1)[C@H]1Cc4ccc(O)c5c4[C@@]3(CCN1CC1CC1)[C@H]2O5`, the pEC50 was 10.33.

With `COc1ccc2c3c1O[C@H]1C4(OC)CC[C@@]5(C[C@]4(C)COCc4ccccc4)[C@@H](C2)N(CC2CC2)CC[C@]315`, the pEC50 was 10.07.

Consider `CO[C@]12CC[C@@]3(C[C@]1(C)COCc1cc4ccccc4s1)[C@H]1Cc4ccc(O)c5c4[C@@]3(CCN1CC1CC1)C2O5` (stereo partly drawn), for which the pEC50 was 9.57.

For a further experiment, the target named is T1, μ-opioid receptor. Kind of experiment: μ-opioid receptor [35S]GTPγS functional assay, U-2 OS cells. Particulars: maximal effect relative to DAMGO; U-2 OS cells.
Regarding `COC12CC[C@@]3(C[C@]1(C)COCc1ccccc1)[C@H]1Cc4ccc(O)c5c4[C@@]3(CCN1CC1CC1)[C@H]2O5`, the “μ Emax (%)” value is on record as 89.7 ± 1.33%.

`COc1ccc2c3c1O[C@H]1C4(OC)CC[C@@]5(C[C@]4(C)COCc4ccccc4)[C@@H](C2)N(CC2CC2)CC[C@]315`: the “μ Emax (%)” value is recorded as 88.0 ± 1.29%.

Turning to `CO[C@]12CC[C@@]3(C[C@]1(C)COCc1cc4ccccc4s1)[C@H]1Cc4ccc(O)c5c4[C@@]3(CCN1CC1CC1)C2O5` (stereo partly drawn), the “μ Emax (%)” value is listed as 43.7 ± 1.67%.

The experiment is the same for the next values; noted with them: read-out: μ EC50; μ GTP EC50; membranes from U-2 OS cells.
On to `COC12CC[C@@]3(C[C@]1(C)COCc1ccccc1)[C@H]1Cc4ccc(O)c5c4[C@@]3(CCN1CC1CC1)[C@H]2O5`, for which the pEC50 was 10.19.

`COc1ccc2c3c1O[C@H]1C4(OC)CC[C@@]5(C[C@]4(C)COCc4ccccc4)[C@@H](C2)N(CC2CC2)CC[C@]315`: the pEC50 was 8.06.

Regarding `CO[C@]12CC[C@@]3(C[C@]1(C)COCc1cc4ccccc4s1)[C@H]1Cc4ccc(O)c5c4[C@@]3(CCN1CC1CC1)C2O5` (stereo partly drawn), the pEC50 was 9.85.

As usually defined, the pEC50 is the EC50 on a negative log10 scale, so that one unit is a factor of ten.
